# Literature values as cited in patent publication US9603878B2, “Probiotic and prebiotic compositions, and methods of use thereof for treatment and prevention of graft versus host disease” (Evelo Biosciences, Inc., priority 2014, dated 2017).
# Settings: Pathogen/Pathobiont status of the OTU; Table 1, See, e.g., WO 2014/121304; cited from earlier work
substance,measurement,value
Bacteroides fragilis,Pathogen Status,N
